# In patent publication US20250144186A1, “NOVEL THERAPEUTIC USES OF GARDNERELLA ENDOLYSINS” (priority 2022, published 2025):
# How the values were obtained:
# Gardnerella swidsinskii = format: cell-based; settings: N=4, resistance ≥32 μg/mL MDZ, ≥8 μg/mL CLI
# Description: (§1) The minimum inhibitory concentration (MIC), which is a standard measure of the activity of antimicrobials, was determined according to the Clinical and Laboratory Standards Institute protocol (2018) Methods for Antimicrobial Susceptibility Testing of Anaerobic Bacteria (Carpenter et al., 2018). […] Controls for growth in the absence of antimicrobials were also included. OD600 was recorded by a microplate reader (Tecan, Grodig, Austria) after incubation at 37° C. for 48 h or, for some fast-growing strains, after incubation for 24 h. Absence of growth was defined as OD600≤0.14. […] MIC readout and MBC99.5 spotting were performed after 72 h incubation for H2B10B11.
# (§2) However, topical intravaginal antibiotic administration is recommended for BV therapy, which allows to reach concentrations of active ingredients in the mg/mL range. […] Abbreviations: n.d., not determined; SJHB, St. Jan Hospital Bruges.
# (§3) MIC90 is defined as the MIC value for 90% of the tested strains. For PM-477 (H2B10), the resistance breakpoint is not defined, therefore a “% resistant” is not defined (n.d.).
# Gardnerella vaginalis = format: cell-based; settings: N=8, resistance ≥32 μg/mL MDZ, ≥8 μg/mL CLI
# Description: as §1, §2, §3
structure (smiles),measurement,setting,value
"CCC[C@@H]1C[C@@H](C(=O)N[C@@H]([C@H]2O[C@H](SC)[C@H](O)[C@@H](O)[C@H]2O)[C@H](C)Cl)N(C)C1 [CLI, clindamycin]",N resistant,Gardnerella swidsinskii,0
same,N resistant,Gardnerella vaginalis,0
